PMC12102759 (Protein Science : A Publication of the Protein Society, 2025)

Test system: AP2M1 MU
Format: binding, human

Substance | PSSM value of the substitution, averaged over the two overlapping peptides | PSSM value of the substitution (DMS by phage display)
VSDIDYVPLKSATA(averaged) Y6L (VSDIDLVPLKSATA) | 0 | 
VSDIDYVPLKSATA(averaged) Y6M (VSDIDMVPLKSATA) | 0 | 
VSDIDYVPLKSATA(averaged) Y6N (VSDIDNVPLKSATA) | 0 | 
VSDIDYVPLKSATA(averaged) Y6P (VSDIDPVPLKSATA) | 0 | 
VSDIDYVPLKSATA(averaged) Y6Q (VSDIDQVPLKSATA) | 0 | 
VSDIDYVPLKSATA(averaged) Y6R (VSDIDRVPLKSATA) | 0 | 
VSDIDYVPLKSATA(averaged) Y6S (VSDIDSVPLKSATA) | 0 | 
VSDIDYVPLKSATA(averaged) Y6T (VSDIDTVPLKSATA) | 0 | 
VSDIDYVPLKSATA(averaged) Y6V (VSDIDVVPLKSATA) | 0 | 
VSDIDYVPLKSATA(averaged) Y6W (VSDIDWVPLKSATA) | 0 | 
VSDIDYVPLKSATA(averaged) Y6Y | 1 | 
VSDIDYVPLKSATAIT A12A |  | 0.005544
VSDIDYVPLKSATAIT A12D (VSDIDYVPLKSDTAIT) |  | 0.004033
VSDIDYVPLKSATAIT A12E (VSDIDYVPLKSETAIT) |  | 0.2236
VSDIDYVPLKSATAIT A12F (VSDIDYVPLKSFTAIT) |  | 0.03563
VSDIDYVPLKSATAIT A12G (VSDIDYVPLKSGTAIT) |  | 0
VSDIDYVPLKSATAIT A12H (VSDIDYVPLKSHTAIT) |  | 0.003172
VSDIDYVPLKSATAIT A12I (VSDIDYVPLKSITAIT) |  | 0
VSDIDYVPLKSATAIT A12K (VSDIDYVPLKSKTAIT) |  | 0
VSDIDYVPLKSATAIT A12L (VSDIDYVPLKSLTAIT) |  | 0.2466

Substance | PSSM value of the substitution, averaged over the two overlapping peptides | PSSM value of the substitution (DMS by phage display)
VSDIDYVPLKSATAIT A12M (VSDIDYVPLKSMTAIT) |  | 0.08073
VSDIDYVPLKSATAIT A12N (VSDIDYVPLKSNTAIT) |  | 0.01184
VSDIDYVPLKSATAIT A12P (VSDIDYVPLKSPTAIT) |  | 0.0007881
VSDIDYVPLKSATAIT A12Q (VSDIDYVPLKSQTAIT) |  | 0
VSDIDYVPLKSATAIT A12R (VSDIDYVPLKSRTAIT) |  | 0
VSDIDYVPLKSATAIT A12S (VSDIDYVPLKSSTAIT) |  | 0.2885
VSDIDYVPLKSATAIT A12T (VSDIDYVPLKSTTAIT) |  | 0.01191
VSDIDYVPLKSATAIT A12V (VSDIDYVPLKSVTAIT) |  | 0.003612
VSDIDYVPLKSATAIT A12W (VSDIDYVPLKSWTAIT) |  | 0.08398
VSDIDYVPLKSATAIT A12Y (VSDIDYVPLKSYTAIT) |  | 0
VSDIDYVPLKSATAIT A14A |  | 0.00476
VSDIDYVPLKSATAIT A14D (VSDIDYVPLKSATDIT) |  | 0.005792
VSDIDYVPLKSATAIT A14E (VSDIDYVPLKSATEIT) |  | 0
VSDIDYVPLKSATAIT A14F (VSDIDYVPLKSATFIT) |  | 0
VSDIDYVPLKSATAIT A14G (VSDIDYVPLKSATGIT) |  | 0.04718
VSDIDYVPLKSATAIT A14H (VSDIDYVPLKSATHIT) |  | 0.006302
VSDIDYVPLKSATAIT A14I (VSDIDYVPLKSATIIT) |  | 0
VSDIDYVPLKSATAIT A14K (VSDIDYVPLKSATKIT) |  | 0
VSDIDYVPLKSATAIT A14L (VSDIDYVPLKSATLIT) |  | 0.00137
VSDIDYVPLKSATAIT A14M (VSDIDYVPLKSATMIT) |  | 0

Substance | PSSM value of the substitution, averaged over the two overlapping peptides | PSSM value of the substitution (DMS by phage display)
VSDIDYVPLKSATAIT A14N (VSDIDYVPLKSATNIT) |  | 0.002047
VSDIDYVPLKSATAIT A14P (VSDIDYVPLKSATPIT) |  | 0.003463
VSDIDYVPLKSATAIT A14Q (VSDIDYVPLKSATQIT) |  | 0
VSDIDYVPLKSATAIT A14R (VSDIDYVPLKSATRIT) |  | 0.2616
VSDIDYVPLKSATAIT A14S (VSDIDYVPLKSATSIT) |  | 0.00551
VSDIDYVPLKSATAIT A14T (VSDIDYVPLKSATTIT) |  | 0.6599
VSDIDYVPLKSATAIT A14V (VSDIDYVPLKSATVIT) |  | 0.002047
VSDIDYVPLKSATAIT A14W (VSDIDYVPLKSATWIT) |  | 0
VSDIDYVPLKSATAIT A14Y (VSDIDYVPLKSATYIT) |  | 0
VSDIDYVPLKSATAIT D3A (VSAIDYVPLKSATAIT) |  | 0
VSDIDYVPLKSATAIT D3D |  | 0.004361
VSDIDYVPLKSATAIT D3E (VSEIDYVPLKSATAIT) |  | 0.002841
VSDIDYVPLKSATAIT D3F (VSFIDYVPLKSATAIT) |  | 0.105
VSDIDYVPLKSATAIT D3G (VSGIDYVPLKSATAIT) |  | 0
VSDIDYVPLKSATAIT D3H (VSHIDYVPLKSATAIT) |  | 0
VSDIDYVPLKSATAIT D3I (VSIIDYVPLKSATAIT) |  | 0
VSDIDYVPLKSATAIT D3K (VSKIDYVPLKSATAIT) |  | 0.05908
VSDIDYVPLKSATAIT D3L (VSLIDYVPLKSATAIT) |  | 0.142
VSDIDYVPLKSATAIT D3M (VSMIDYVPLKSATAIT) |  | 0.009321
VSDIDYVPLKSATAIT D3N (VSNIDYVPLKSATAIT) |  | 0.1331
